Source: publication PMC7444660 (ACS chemical neuroscience, 2020)

Sequences of proteins named here, by UniProt entry; tags and fusion partners are left off. Residues count along the entry.
UniProt Q08499, 1-748 isoform Q08499-11 S129D/S654A/S656A: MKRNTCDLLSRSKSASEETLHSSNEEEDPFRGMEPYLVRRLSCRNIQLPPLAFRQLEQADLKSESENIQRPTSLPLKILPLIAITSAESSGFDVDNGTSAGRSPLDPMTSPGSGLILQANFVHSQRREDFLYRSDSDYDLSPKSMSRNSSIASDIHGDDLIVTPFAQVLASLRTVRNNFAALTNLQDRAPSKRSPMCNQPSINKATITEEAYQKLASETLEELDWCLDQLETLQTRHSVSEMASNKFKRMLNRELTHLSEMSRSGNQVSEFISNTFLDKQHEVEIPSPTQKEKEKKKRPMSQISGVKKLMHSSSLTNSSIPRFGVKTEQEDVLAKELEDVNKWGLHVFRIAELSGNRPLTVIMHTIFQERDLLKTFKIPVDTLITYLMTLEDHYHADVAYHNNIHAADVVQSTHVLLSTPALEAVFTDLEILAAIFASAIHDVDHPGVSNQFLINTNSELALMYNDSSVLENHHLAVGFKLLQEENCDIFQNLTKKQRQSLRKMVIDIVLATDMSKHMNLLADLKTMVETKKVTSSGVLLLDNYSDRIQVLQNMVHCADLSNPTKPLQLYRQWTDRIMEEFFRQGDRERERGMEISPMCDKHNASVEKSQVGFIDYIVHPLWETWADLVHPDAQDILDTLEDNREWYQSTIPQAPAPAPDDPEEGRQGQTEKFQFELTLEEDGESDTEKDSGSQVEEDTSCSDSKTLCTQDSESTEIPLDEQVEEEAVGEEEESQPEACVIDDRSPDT

Biological target: Human PDE4D7* (S129D) (Homo sapiens, UniProt Q08499, S190D/S715A/S717A)
Test: PDE4 enzyme inhibition assay

Row | SMILES | IC50 | Selectivity for PDE4D* over PDE4B
1 | COc1ccc(Cc2ccncc2)nc1-c1cccc(Cl)c1 [Compound 3, 2-(3-chlorophenyl)-3-methoxy-6-[(pyridin-4-yl)methyl]pyridine] | 5.12 nM | 
2 | COc1ccc(Cc2cn[nH]c2)nc1-c1cccc([N+](=O)[O-])c1 [Compound 6] | 3.5 nM | 320
3 | COc1ccc(Cc2ccncc2)nc1-c1cccc([N+](=O)[O-])c1 [Compound 5, 3-methoxy-2-(3-nitrophenyl)-6-[(pyridin-4-yl)methyl]pyridine] | 2.8 nM | 
